The values that follow come from US8722910B2, “Diyne compositions” (Evolva AG, priority 2009, dated 2014).

This assay deals with S. cerevisiae. Kind of assay: Fatty acid competition (antagonism) on agar plates. As to conditions: 28 μg/ml fatty acid in agar.

For the molecule `O=C([O-])CCCCCCC/C=C\C#CC#Cc1ccco1.[Na+]` [Compound V″, sodium (Z)-14-(furan-2-yl)tetradeca-9-en-11,13-diynoate], the “effect of oleic acid / stearic acid on susceptibility” value was “oleic acid (but not stearic acid) had an antagonistic effect”.
